The source of these data is PubChem BioAssay AID2057 (The Scripps Research Institute Molecular Screening Center, 2009).

Sequences of proteins named here, by UniProt entry; tags and fusion partners are left off.
UniProt Q07820, whole entry: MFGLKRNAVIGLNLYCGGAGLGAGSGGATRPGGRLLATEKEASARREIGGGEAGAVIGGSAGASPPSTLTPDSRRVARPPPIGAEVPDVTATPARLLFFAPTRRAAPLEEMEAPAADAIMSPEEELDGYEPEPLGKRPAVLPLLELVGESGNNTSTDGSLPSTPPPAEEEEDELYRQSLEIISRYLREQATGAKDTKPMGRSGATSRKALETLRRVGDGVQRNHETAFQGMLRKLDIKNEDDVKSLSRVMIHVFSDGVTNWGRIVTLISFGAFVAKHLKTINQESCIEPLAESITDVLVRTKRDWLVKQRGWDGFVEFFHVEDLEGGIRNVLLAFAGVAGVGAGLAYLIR

The list shows a part of the results, in another mix than the full data. Activity calls are given as the source filed them.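 The calls were made as follows: active = inhibition above the mean inhibition of all tested compounds plus 3 SD, set per campaign (cut at about 40% in these data); inactive = the rest.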

The target in the experiment is Induced myeloid leukemia cell differentiation protein Mcl-1 (Homo sapiens) (UniProt Q07820). The experiment is described as follows: inhibitors of MCL1 binding to BIM-BH3, primary screen, biochemical, fluorescence polarization (AID 2057).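 Also: 0% = DMSO wells and 100% = unlabeled Bim-BH3 peptide control; higher means more loss of mP so more displacement of Bim peptide.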 The settings on record: GST-MCL1 / FITC-Bim-BH3 fluorescence polarization; at 10.9 µM; active compounds read high.
As to `COc1cc(OC)c(C(=O)NCC2(N(C)C)CCCCC2)cc1OC`, the inhibition (as a rule, the change of the read-out against control, counted positive when it falls) was inactive: 1.52%.

Take `CC(C)c1ccc(NC2CCN(C(=O)OC(C)(C)C)CC2)cc1`: the inhibition was inactive: 4.62%.

On to `COc1ccc(CN(CCCl)CCCl)cc1Cl`, for which the inhibition was inactive: -6.47%.

`CN(C)c1cccc(C(=O)NCC2(N3CCCCC3)CCCCC2)c1`: the inhibition is inactive: 0.81%.

Take `CN1CCC(Nc2cccc(F)c2)CC1`: the inhibition is inactive: -0.84%.

Consider `O=C(NCC1(N2CCCCC2)CCCCC1)c1cncc(Br)c1`, for which the inhibition is inactive: -2.27%.

With `CCN1CCC(Nc2ccc(Cl)cc2)CC1`, the inhibition was inactive: 9.99%.

As to `N#CC1(Nc2ccccc2)CCN(CCc2ccccc2)CC1`, the inhibition is inactive: 2.92%.

As to `O=C(NCC1(N2CCCCC2)CCCCC1)c1cccc([N+](=O)[O-])c1`, the inhibition is inactive: -4.44%.

As for `O=C(NCC1(N2CCCCC2)CCCCC1)c1ccc(OC(F)F)cc1`, the inhibition was inactive: -15.6%.

For `COc1cc(C(=O)NCC2(N3CCCCC3)CCCCC2)ccc1OC(F)F`, the inhibition was inactive: -18%.

Regarding `O=C(NCC1(N2CCOCC2)CCCCC1)c1cc(=O)[nH]c2ccccc12`, the inhibition is inactive: 2.9%.

In the case of `CN1CCN(CCOC(=O)C(O)(c2ccccc2)c2ccccc2)CC1`, the inhibition was inactive: 4.27%.

Consider `COc1ccc(NC2CCN(C(=O)OC(C)(C)C)CC2)cc1`, for which the inhibition was inactive: 17%.

For `O=C(NCC1(N2CCCCC2)CCCCC1)c1cccc(C(F)(F)F)c1`, the inhibition is inactive: 0.96%.

As for `O=C(NCC1(N2CCCCC2)CCCCC1)c1ccc(F)cc1`, the inhibition was inactive: -2.44%.

For the molecule `COc1ccc(NC2CCN(CCc3ccccc3)CC2)c(OC)c1`, the inhibition was inactive: 1.73%.

For the molecule `CCOc1ccc(C)cc1CN(CCCl)CCCl`, the inhibition was inactive: 5.5%.

Consider `CCOC(=O)N1CCC(Nc2cccc(C)c2)CC1`, for which the inhibition was inactive: 8.37%.

For `Cc1ccc(OCC(C)C)c(CN(CCCl)CCCl)c1`, the inhibition was inactive: 2.53%.

Take `CSc1ccccc1C(=O)NCC1(N2CCCCC2)CCCCC1`: the inhibition is inactive: 2.27%.

For the molecule `COc1ccc(C(=O)NCC2(N3CCCCC3)CCCCC2)cc1`, the inhibition is inactive: -3.48%.

In the case of `CC(C)(C)OC(=O)N1CCC(N(C(=O)c2ccccc2)c2ccc(F)cc2)CC1`, the inhibition is inactive: -0.54%.

As for `COc1ccc(C(=O)NCC2(N3CCCCC3)CCCCC2)c(OC)c1OC`, the inhibition is inactive: 5.89%.

Consider `O=C(NCC1(N2CCCCC2)CCCCC1)c1ccc(=O)[nH]c1`, for which the inhibition was inactive: 4.81%.

`O=C(NCC1(N2CCCCC2)CCCCC1)c1cccs1`: the inhibition was inactive: -12%.

With `N#CC1(Nc2ccccc2)CCN(Cc2ccccc2)CC1`, the inhibition is inactive: 2.55%.

As for `O=C(NCC1(N2CCCCC2)CCCCC1)c1ccc(Cl)s1`, the inhibition is inactive: -0.27%.

Take `O=C(OC1CN2CCC1CC2)C1c2ccccc2Oc2ccccc21` (stereo unspecified): the inhibition was inactive: 32.9%.

For `COc1ccc(Cl)cc1C(=O)NCC1(N2CCOCC2)CCCCC1`, the inhibition was inactive: -7.6%.

On to `CCOC(=O)N1CCC(Nc2ccc(OC)cc2)CC1`, for which the inhibition was inactive: 20.2%.

Consider `O=C(NCC1(N2CCCCC2)CCCCC1)c1ccc(Cl)nc1`, for which the inhibition is inactive: -18.1%.

Consider `Cc1cc(C)cc(N(C(=O)c2ccccc2)C2CCN(C(=O)OC(C)(C)C)CC2)c1`, for which the inhibition is inactive: 6.05%.

On to `O=C(NCC1(N2CCOCC2)CCCCC1)c1cc2ccccc2o1`, for which the inhibition was inactive: 5.42%.

As for `CC(C)(C)OC(=O)N1CCC(Nc2ccccc2)CC1`, the inhibition is inactive: -0.16%.

With `O=C(O)C1(Nc2ccccc2)CCN(Cc2ccccc2)CC1`, the inhibition is inactive: -0.58%.

`CCCOc1ccc(C(=O)NCC2(N(C)C)CCCCC2)cc1`: the inhibition was inactive: 3.1%.

Take `CCOc1ncccc1C(=O)NCC1(N2CCOCC2)CCCCC1`: the inhibition was inactive: 7.29%.

On to `CN1CCC(Nc2ccc(F)c(Cl)c2)CC1`, for which the inhibition was inactive: 7.84%.

Consider `CN1CCC(Nc2ccc(Cl)cc2)CC1`, for which the inhibition was inactive: 6.42%.

`CCCOc1ccc(C)cc1CN(CCCl)CCCl`: the inhibition was inactive: -1.1%.

As for `COc1cc(OC)cc(C(=O)NCC2(N3CCOCC3)CCCCC2)c1`, the inhibition is inactive: -5.75%.

Turning to `COc1cccc(C(=O)N(c2cc(C)cc(C)c2)C2CCN(C(=O)OC(C)(C)C)CC2)c1`, the inhibition was inactive: -6.45%.

In the case of `CCC(CO)(C(=O)OC1CN2CCC1CC2)c1ccccc1` (stereo unspecified), the inhibition is inactive: 7.62%.

With `Cc1ccc(C(=O)NCC2(N3CCCCC3)CCCCC2)o1`, the inhibition is inactive: -4.5%.

For the molecule `Fc1ccccc1NC1CCN(Cc2ccccc2)CC1`, the inhibition is inactive: 0.35%.

As for `COc1cc(OC)cc(C(=O)NCC2(N3CCCCC3)CCCCC2)c1`, the inhibition was inactive: 3.32%.

In the case of `O=C(NCC1(N2CCCCC2)CCCCC1)c1ccco1`, the inhibition is inactive: 3.49%.

As for `CN(C)c1ccc(C(=O)NCC2(N3CCCCC3)CCCCC2)cc1`, the inhibition is inactive: -1.32%.

Consider `CCN1CCC(Nc2cccc(F)c2)CC1`, for which the inhibition was inactive: -3.72%.

For `N#Cc1ccc(C(=O)NCC2(N3CCCCC3)CCCCC2)cc1`, the inhibition is inactive: -2.28%.

On to `CC(C)(C)OC(=O)N1CCC(N(C(=O)c2ccccc2)c2ccc(Cl)cc2)CC1`, for which the inhibition was inactive: 11.3%.

Regarding `CN(C)C1(CNC(=O)c2cccc(C#N)c2)CCCCC1`, the inhibition was inactive: -4.37%.

Turning to `c1ccc(CN2CCC(Nc3ccccc3)CC2)cc1`, the inhibition was inactive: -2.97%.

For the molecule `CCCN1CCC(Nc2cc(OC)cc(OC)c2)CC1`, the inhibition is active: 40.7%.

`COc1ccc(C(=O)NCC2(N3CCOCC3)CCCCC2)cc1OC`: the inhibition is inactive: -2.84%.

For `O=C(NCC1(N2CCOCC2)CCCCC1)c1cc(Br)ccc1Cl`, the inhibition was inactive: 0.28%.

For `CCc1cc(C(=O)NCC2(N3CCCCC3)CCCCC2)sc1C`, the inhibition was inactive: 2.31%.

On to `O=C(OC1CN2CCC1CC2)C1c2ccccc2C=Cc2ccccc21` (stereo unspecified), for which the inhibition is inactive: 2.46%.

As for `CCOC(=O)N1CCC(Nc2ccc(C)cc2)CC1`, the inhibition was inactive: 9.37%.

Consider `N/C(=N\O)c1c(N)no[n+]1[O-]`, for which the inhibition was inactive: -3.47%.
